{
  "source": "patent US10465009B2",
  "about": "“BCMA antigen binding proteins” (Amgen Inc., priority 2012, dated 2019)",
  "molecules": {"B1": {"name": "2A1CV5-MCC-DM1 (conjugate)", "heavy": "EVQLVESGGGLVKPGGSLRLSCAASGFTFGDYALSWFRQAPGKGLEWVGVSRSKAYGGTTDYAASVKGRFTISRDDSKSTAYLQMNSLKTEDTAVYYCASSGYSSGWTPFDYWGQGTLVTVSSASTKGPSVFPLAPSSKSTSGGTAALGCLVKDYFPEPVTVSWNSGALTSGVHTFPAVLQSSGLYSLSSVVTVPSSSLGTQTYICNVNHKPSNTKVDKKV[omitted - human IgG1 Fc]", "light": "QSVLTQPPSASGTPGQRVTISCSGSSSNIGSNTVNWYQQLPGTAPKLLIFNYHQRPSGVPDRFSGSKSGSSASLAISGLQSEDEADYYCAAWDDSLNGWVFGGGTKLTVLGQPKAAPSVTLFPPSSEELQANKATLVCLISDFYPGAVTVAWKADSSPVKAGVETTTPSKQSNNKYAASSYLSLTPEQWKSHRSYSCQVTHEGSTVEKTVAPTECS"}},
  "key": {"KMS34": {"test_system": "KMS34", "experiment": "CellTiter-Glo Luminescent Cell Viability Assay, KMS34", "assay_type": "cell-based, human", "method": "The ADCs were tested for the ability to target and kill BCMA-expressing myeloma cells. The CellTiter-Glo® Luminescent Cell Viability Assay is a homogeneous method to determine the number of viable cells in culture based on quantitation of the ATP present, which signals the presence of metabolically active cells. The CellTiter-Glo® Assay is applicable to cytotoxicity assays (see http://www.promega.com/products/cell-health-assays/cell-viability-assays/celltiterglo-luminescent-cell-viability-assay/ for more information). The cell viability assay was used to assess the relative killing capacity of various ADCs on various multiple myeloma cell lines and B-cell lines. […] Luminescence was read on an EnVision™ Multilabel reader (PerkinElmer) or Analyst HT plate reader (LJL Biosciences). The data was analyzed and graphed using GraphPad Prism™ to determine the relative efficacy of the ADCs on various cancer cell lines.\nThe 2A1CV5-MCC-DM1, 32B5-MCC-DM1 and 29C12-MCC-DM1 ADCs were tested for the ability to target and kill BCMA-expressing myeloma cells (H929). The CellTiter-Glo® Luminescent Cell Viability Assay is a homogeneous method to determine the number of viable cells in culture based on quantitation of the ATP present, which signals the presence of metabolically active cells. […] Luminescence was read on an EnVision™ Multilabel reader (PerkinElmer) or Analyst HT plate reader (LJL Biosciences). […]"}, "[1]": {"test_system": "H929 luciferase-labeled myeloma cells", "experiment": "H929-luc bone-tropic xenograft model (incl. serum human IgG FLC kappa ELISA)", "assay_type": "in vivo, NSG mice", "conditions": "for antitumor effect (hind limb bioluminescence): single IV treatment day 14, 250 ug DM1/kg (10 mg Ab/kg)", "method": "In short, H929 luciferase-labeled myeloma cells that express an average of approximately 24,000 BCMA sites per cell were administered intravenously (1×10^6 cells) into NSG mice. Fourteen days after tumor inoculation, tumor-bearing animals were randomized based on hind limb bioluminescence (tumor burden) into groups of ten animals each and dosed intravenously once. A blinded dosing study of 2A1CV5-MCC-DM1, unconjugated 2A1CV5 and control conjugate employing a single dose of 250 ug DM1/kg (10 mg Ab/kg) was performed in this established bone-tropic tumor model. No nutritional supplementation was provided.\n• 1×10^6 cells H929-luc cells, IV • Mice distributed into equal groups determined by hind limb BLI, Day 14 • Single treatment of antibody at 10 mg/kg, I.V., Day 14 • BLI measured 2×/week (blinded) • Study endpoint day 35 • 80 NSG (NOD/SCID IL2Rg−/−) mice were injected intravenously on Jan. 13, 2011, 1×10^6 H929luc cells • BLI was measured twice per week • Day 14 mice were distributed into five equivalent groups (n=10) based on hind limb tumor burden, as measured by BLI • Treatment plan: one I.V. injection • Treatment groups blinded and include: • Vehicle (PBS) • Anti-huBCMA-huIgG1-2A1-CV5 (unconjugated) • Anti-huBCMA-huIgG1-2A1-CV5-MCC-DM1 • Anti-huBCMA-huIgG1-2A1-WT-MCC-DM1 • Anti Streptavadin-MCC-DM1 • Anti-huBCMA-2A1-CV5-MCC-DM1 used at 10 mpk • Anti-huBCMA-2A1-WT-MCC-DM1 and anti Streptavadin-MCC-DM1 were normalized based on maytansinoid drug equivalents of 2A1-CV5-MCC-DM1 at 10 mpk • Timing: injected H929luc cells, ADC treatment began on day 14, analysis on day 35\nHuman immunoglobulin molecules consist of two heavy chains which define class (IgG, IgA, IgM, IgD, IgE) and identical light chains (kappa or lambda). In healthy individuals the majority of light chains in serum exist bound to heavy chains. Free Light Chains (FLC) are a natural product of B lymphocytes and represent a unique biomarker of neoplastic and reactive B cell related disorders. Increased FLC are associated with various malignant plasma disorders. Detection of FLC is an important diagnostic aid for a variety of diseases including multiple myeloma, smoldering myeloma and monoclonal gammopathy of undetermined significance. Human IgG FLC kappa ELISA (Biovendor, RD 194088100R-K) was used to analyze presence of FLC in sera from H929 xenografts. Kappa light chain antibodies were not detected in sera of mice 18 days after being treated with 2A1CV5-MCC-DM1, but were detected in sera of mice receiving vehicle (PBS) or isotype control conjugate (anti-Streptavidin-MCC-DM1) (see FIGS. 38 and 39)."}},
  "note": "Entries after “also recorded” stand apart in the source; their conditions may differ.",
  "data": [
    {"molecule": "B1", "values": [
      {"measurement": "Cell line killed by BCMA ADC", "setting": "KMS34", "value": "Yes"},
      {"measurement": "human kappa free light chain in sera (ELISA)", "setting": "[1]; sera of mice 18 days after treatment", "value": "not detected; also recorded: not in sera"},
      {"measurement": "lytic bone lesions", "setting": "[1]; single IV treatment day 14", "value": "not observed"},
      {"measurement": "antitumor effect (hind limb bioluminescence)", "setting": "[1]", "value": "complete tumor regression"},
      {"measurement": "antitumor effect (hind limb bioluminescence)", "setting": "[1]; listed as Ab-1 ADC", "value": "Complete tumor regression"}
    ]}
  ]
}
